The species named for test [1] is Rattus norvegicus. As to the kind of experiment: Bone calcium-mobilizing activity with compound concentration 130 (pmol/d/7 days). The format is functional, organism-based. The method, boiled down:
(§1)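 Holtzman weanling rats were fed a vitamin D-deficient diet with 0.47% Ca for 1 week, then a 0.02% Ca diet. They received daily intraperitoneal doses in 0.1 mL of 95:5 propylene glycol/ethanol for 7 days; controls got vehicle. Rats were killed 24 h after the last dose. Serum Ca was measured by automatic calcium titrator; on this diet, the rise in serum Ca is taken as bone Ca mobilization. At least 6 rats/group; Student's t-test.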

The species named for test [2] is Rattus norvegicus. As to the kind of experiment: Bone calcium-mobilizing activity with compound concentration 65 (pmol/d/7 days). It counts as functional, organism-based. The method, boiled down: as §1

The structures appear in SMILES notation. “And” between values parts separate entries of the source, which are not always exact repeats. Equal entries are not always repeated.

As for `C=C1/C(=C/C=C2/CCCC3(C)C2CCC3[C@H](C)CCCC(C)(C)O)C[C@@H](O)C[C@@H]1O` (some centres not stated), the Serum Ca2+ in test [1] is 5.6 and 5.7; in test [2] it was 5.2.

These data come from ChEMBL document CHEMBL1127389, “Synthesis and biological activity of 2-hydroxy and 2-alkoxy analogs of 1 alpha,25-dihydroxy-19-norvitamin D3” (1994).
